The results in this text go back to BindingDB's records for PubMed 7915318 (Ohio State University, 1994).

The chains behind the UniProt entries cited, without tags or fusion partners.
UniProt P08588, whole entry: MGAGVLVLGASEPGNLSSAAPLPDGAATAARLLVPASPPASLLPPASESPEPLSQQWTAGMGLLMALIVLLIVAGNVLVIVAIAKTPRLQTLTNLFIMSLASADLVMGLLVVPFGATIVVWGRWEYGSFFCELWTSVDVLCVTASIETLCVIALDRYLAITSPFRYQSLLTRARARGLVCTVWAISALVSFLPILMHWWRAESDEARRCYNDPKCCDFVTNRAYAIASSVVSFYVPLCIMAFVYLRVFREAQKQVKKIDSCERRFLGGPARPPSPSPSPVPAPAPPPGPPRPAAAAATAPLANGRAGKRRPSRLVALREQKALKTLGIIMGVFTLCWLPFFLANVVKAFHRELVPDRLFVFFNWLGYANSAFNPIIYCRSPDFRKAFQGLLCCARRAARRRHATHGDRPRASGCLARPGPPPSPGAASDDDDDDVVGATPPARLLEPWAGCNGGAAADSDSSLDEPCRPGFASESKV
UniProt Q8K4Z4, whole entry: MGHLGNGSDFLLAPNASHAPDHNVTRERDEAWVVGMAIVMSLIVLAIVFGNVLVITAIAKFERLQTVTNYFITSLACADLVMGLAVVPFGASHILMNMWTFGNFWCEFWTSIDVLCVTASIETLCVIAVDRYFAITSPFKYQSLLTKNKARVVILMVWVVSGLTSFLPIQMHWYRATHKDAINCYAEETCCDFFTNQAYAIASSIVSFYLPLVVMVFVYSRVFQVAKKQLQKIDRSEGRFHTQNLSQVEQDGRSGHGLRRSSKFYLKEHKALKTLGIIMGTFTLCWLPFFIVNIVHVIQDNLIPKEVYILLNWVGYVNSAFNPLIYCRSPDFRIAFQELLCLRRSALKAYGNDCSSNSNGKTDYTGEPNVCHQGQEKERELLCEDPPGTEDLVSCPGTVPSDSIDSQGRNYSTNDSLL

The structures appear in SMILES notation.

For experiment [1], the target named is Beta-1 adrenergic receptor (Homo sapiens, UniProt P08588).
Experiment [2] has as its target Beta-2 adrenergic receptor (Cavia porcellus, UniProt Q8K4Z4).

For orientation: Ki means the equilibrium dissociation constant of an inhibitor or competing ligand from its target. Read a high Ki as weaker binding. In experiment [1], `COc1c(I)cc(CC2NCCc3cc(O)c(O)cc32)cc1I` (configuration not stated) [TMQ, 3',5'-Diiodo] gave a Ki of 0.00524 µM. Take `CC(C)(C)NCC(O)c1ccc(O)c(CO)c1` (racemic) [Levalbuterol]: the inhibition constant Ki in experiment [2] was 2.4 µM.
